In paper PMC6458069 (Molecular microbiology, 2019) one finds Fold change knockdown data, which are given here for 1 compound.

This experiment deals with M. tuberculosis JR1740 strain. The experiment is classed as cell-based.

Take `O=C1c2ccccc2C(=O)C1c1ccc(Br)cc1` [Bromindione, reference compound]: the Fold change knockdown stood at 1.
